## Binding of CDR-mutated scFvs to a peptide of the spike HR2 region

Reference: Engelhart et al. 2022, doi:10.1038/s41597-022-01779-4. File: FLAb, binding data.

Target peptide (SARS-CoV-2 spike, HR2 region): PDVDLGDISGINAS

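The starting antibody came from a phage panning campaign against this peptide. In library AAYL50, one, two or three CDR residues were substituted; doubles and triples were drawn at random. AlphaSeq pools MATa yeast showing the antibodies with MATalpha yeast showing the peptide. After mating in shaken culture at 30 °C for 16 h, diploids were selected and their barcode pairs sequenced. Scores were corrected for input abundance and mapped to Kd with protein pairs of known affinity run in the same pool. The assay was run in three technical replicates.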

Ab-14 is the parent antibody, in scFv form: VH, then a (GGGGS)3 linker, then VL. The heavy chain is unchanged in all variants.
VH: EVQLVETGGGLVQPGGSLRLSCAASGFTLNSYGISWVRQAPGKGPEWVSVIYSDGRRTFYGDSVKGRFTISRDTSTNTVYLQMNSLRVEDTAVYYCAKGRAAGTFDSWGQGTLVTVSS
VL: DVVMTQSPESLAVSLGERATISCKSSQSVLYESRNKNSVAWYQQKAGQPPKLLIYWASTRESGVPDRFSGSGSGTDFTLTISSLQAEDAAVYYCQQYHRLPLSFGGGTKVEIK

The parent's light chain CDRs are KSSQSVLYESRNKNSVA, WASTRES, QQYHRLPLS; each variant's own CDRs replace them letter for letter.
This list gathers variants with a substitution at L100 (VL, numbered from residue 1).
Values are log10 of the apparent Kd in nM; lower means stronger binding.
Averages over replicates are reported, and they cover detected replicates only.
"nd" marks a missing value. The strain was present, yet no cells mated with the target were sequenced in any replicate, which points to weak or no binding.
For reference, the parent read 0.65 as the reference entry and 1.68 as a member of this library.
Three control strains display no target. For library AAYL50, 18% of the pairings with them gave a signal, with a median of 4.19 and one signal in twenty below 2.99, so weak values seen in few replicates may be background.

For KSSQSVLYESRNKWSVA / WASTRES / QQYHRCPLS, the assay gave 3.49 (1 of 3 replicates). Variant KSSQSVLVESRNLNSVA / WASTRES / QQYHRQPLS showed 1.76 (3 of 3 replicates). Variant KSSQEVLYERRNKNSVA / WASTRES / QQYHREPLS showed 1.85 (3 of 3 replicates). Variant KLSQSVLYESRNKHSVA / WASTRES / QQYHRHPLS showed 0.39 (3 of 3 replicates). Variant KSSQSVLYESRNKNSVW / WWSTRES / QQYHRWPLS gave 3.51 (1 of 3 replicates).

Variant KASQSVLYESRNHNSVA / WASTRES / QQYHRRPLS showed nd (0 of 3 replicates). For KSNQSVLYESRNKNSVA / WASTRES / QQYHRSPLN, the assay gave nd (0 of 3 replicates). Variant KSSQSILYEYRNKNSVA / WASTRES / QQYHRKPLS gave 4.77 (2 of 3 replicates). For KSSQSVLYESVNKNSVA / WASTRES / QQFHRQPLS, the assay gave nd (0 of 3 replicates). Variant KSGQSVLYESRNKNKVA / WASTRES / QQYHRVPLS gave nd (0 of 3 replicates).

Variant KSSQSYLYESRNKNSVE / WASTRES / QQYHRDPLS showed 5.37 (2 of 3 replicates). Variant KSSQSVLYESCNKNSVA / GASTRES / QQYHRYPLS gave 0.90 (3 of 3 replicates). Variant KSSQSVLYESYNKNSVA / WAMTRES / QQYHRFPLS gave nd (0 of 3 replicates). With KSSKSVLHESRNKNSVA / WASTRES / QQYHRMPLS the result was 1.70 (3 of 3 replicates). With KSSQQVLYESRNKNSVA / WASTRES / QMYHRFPLS the result was nd (0 of 3 replicates).

For KSSKSVLYESRDKNSVA / WASTRES / QQYHRWPLS, the assay gave nd (0 of 3 replicates). Variant KSSQSVLYESRNKNSVA / WASTRES / HQYHRRPLS gave nd (0 of 3 replicates). For KSSQSVLYESRNKNSVA / YASTRES / QQYHRDPLS, the assay gave 2.28 (1 of 3 replicates). For KSSQSVLPESRNKNSVA / WASTRER / QQYHRMPLS, the assay gave 1.04 (3 of 3 replicates). For KSSQSVLGESRNKNSVA / WRSTRES / QQYHRIPLS, the assay gave 2.83 (3 of 3 replicates).

For KSSQSVLYESRNKNSVA / NASTRES / QQYHRHPLA, the assay gave 0.40 (3 of 3 replicates). For KSSQSTLYEQRNKNSVA / WASTRES / QQYHRGPLS, the assay gave 1.01 (3 of 3 replicates). Variant KSSQSVFYESRNKNIVA / WASTRES / QQYHRGPLS gave nd (0 of 3 replicates). For KSSQSVLYESRNINSVA / WASTRES / QQYHRHSLS, the assay gave 4.40 (2 of 3 replicates). For KSSYSVLYESRNKNSVA / WASTQES / QQYHREPLS, the assay gave 5.31 (3 of 3 replicates).

With KSSQRVLYESRNKNSVA / WASTRES / EQYHRKPLS the result was nd (0 of 3 replicates). For KSSQSVLYESSNKNSVA / WASTRES / VQYHRYPLS, the assay gave 4.68 (2 of 3 replicates). Variant KSSQSVLYESRNKNSVA / WASTRES / EQTHRTPLS showed 5.42 (1 of 3 replicates). With KSSQSFLYESRNKNSVA / WASTRES / QQMHRYPLS the result was nd (0 of 3 replicates). With KSSQSVLYESRNKNSVA / WALTRES / QQYHRGPLN the result was nd (0 of 3 replicates).

With KSSQSVLYESRNKNSVA / NASTRES / QQYNRCPLS the result was 0.77 (3 of 3 replicates).